We go through two compounds from patent US9624254B2, “Hydroxysafflor yellow pharmaceutical salts” (ZHEJIANG YONGNING PHARMACEUTICAL CO LTD, priority 2013, dated 2017).

The format of the data set is physicochemical. Conditions: for Content: calculated as hydroxysafflor yellow A.

Where two headings read alike, the source gives them in different places.

With `O=C(/C=C/c1ccc(O)cc1)C1=C(O)C(O)(C2OC(CO)C(O)C(O)C2O)C([O][Ca][O]C2=C(C3OC(CO)C(O)C(O)C3O)C(=O)C(C(=O)/C=C/c3ccc(O)cc3)=C(O)C2(O)C2OC(CO)C(O)C(O)C2O)=C(C2OC(CO)C(O)C(O)C2O)C1=O` (stereo not drawn) [Calcium hydroxysafflor yellow A], the Content (Accelerated 0 month) is on record as 96.2%.
On to Potassium hydroxysafflor yellow A, for which the Total purity came to 1.5% (Accelerated 0 month), 1.8% (Accelerated 1 month), 2.2% (Accelerated 2 months) and 2.8% (Accelerated 3 months). Further, the Content runs as follows: (Accelerated 0 month) 92.5%; (Accelerated 1 month) 92.2%; (Accelerated 2 months) 91.8%; (Accelerated 3 months) 91.3%.
